Laboratory results from patent publication US20230357310A1, “Saponin derivatives with improved therapeutic window” (priority 2019, published 2023).

Assays:
human red blood cells = system: human red blood cells
Method: Red blood cells (RBCs) were isolated from a buffy coat using a Ficoll gradient. The obtained RBC pellet (˜4-5 ml) was washed 2× with 50 ml DPBS (without Ca^2+/Mg^2+, PAN-Biotech GmbH). Cells were pelleted by centrifugation for 10 min, 800×g at RT. RBC were counted and resuspended at 500.000.000 c/ml in DPBS (without Ca^2+/Mg^2+), based on total cell count.
Saponin dilutions were prepared in DPBS (with Ca^2+/Mg^2+, PAN-Biotech GmbH), at 1.11×final strength. For positive lysis control a 0.02% Triton-X100 solution was prepared in DPBS^+/+. Of all compound solutions 135 μl was dispensed/well in a 96 well V-bottom plate. To this 15 μl RBC suspension was added and mixed shortly (10 sec-600 rpm). The plate was incubated 30 min at RT, with gentle agitation. Afterwards the plate was spun for 10 min at 800×g to pellet the RBC and 100-120 μl supernatant was transferred to a standard 96 wp (96 well-plate).

HSP27 mRNA in A431 cells = experiment: HSP27 mRNA gene silencing analysis; type: cell-based; settings: A431, conjugate alone or + 100 nM SO1861-Ald-EMCH
Source text: RNA from cells was isolated and analysed according to standard protocols (Biorad). qPCR primers that were used are indicated in Table A10.

Substance	initial hemolytic activity from (concentration onwards) (human red blood cells) [nM]	IC50 (HSP27 mRNA in A431 cells) [nM]
trastuzumab-SO1861 (DAR4): antibody-SO1861 conjugate, trastuzumab, DAR4	≥ 60.000	–
cetuximab-HSP27BNA: cetuximab conjugated to the HSP27BNA (DAR1.5 or DAR4)	–	> 100
